## Melting point values, as collected for the OPERA models

From the experimental data distributed with OPERA 2.9.

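The OPERA project collected these measurements from public sources as training and test data for property models. The files give a single number for a compound and property, which may rest on several reports. Method, purity and exact conditions of the single measurements are not given. Where a salt, mixture or single isomer is drawn, the source does not say that exactly this form was tested. Unmarked limits or estimates from the upstream databases cannot be ruled out.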

The melting point is given in degrees Celsius.
"via" names the databases from which the curators took the value.

MP (°C) | compound | via
126 | CS(=O)(=O)Nc1ccc2nn(C3CCCC3)nc2c1 | OCHEM
151 | Nc1cc2c(cc1[N+](=O)[O-])OCCO2 | OCHEM
130 | O=C1C=CC(=O)N1c1cccc([N+](=O)[O-])c1 | OCHEM
121 | COc1ccc2c(c1)CC(C(=O)O)CO2 (stereo unspecified) | OCHEM
193 | COc1ncnc2nccnc12 | QSARDB
50 | CC(=O)Cc1ccc(-c2ccccc2)cc1 | OCHEM
86 | O=C(Cl)c1cc(Cl)nc2ccccc12 | OCHEM
83 | NC1CCN(c2ncccn2)CC1 | OCHEM
150 | CN(C)S(=O)(=O)c1cccc(C(=O)NN)c1 | OCHEM
75 | C=CC[N+]1(CCC(C)CCCC(C)C)CCCCC1.[Br-] (stereo unspecified) | OCHEM
236 | Cc1oc(-c2ccc(Cl)cc2)nc1C(=O)O | OCHEM
191 | CCOc1ccc(/N=C(\C)Nc2ccc(OCC)cc2)cc1.Cl | OCHEM
230 | O=C(O)c1ccc(N2C(=O)C=CC2=O)cc1 | OCHEM
122 | Cn1c(-c2ccncc2)n[nH]c1=S | OCHEM
93 | O=C(c1ccc(Cl)cc1)c1ccsc1 | OCHEM
124 | NCC(c1ccccc1)c1c[nH]c2ccccc12 (stereo unspecified) | OCHEM
237 | O=C(O)CC1Sc2ccc(C(F)(F)F)cc2NC1=O (stereo unspecified) | OCHEM
206 | O=C1CCc2cc(S(=O)(=O)Cl)ccc2N1 | OCHEM
186 | Cc1ccc2[nH]c3c(c2c1)CCCC3=O | OCHEM
171 | CCOc1ccc(Nc2n[nH]c(=S)s2)cc1 | OCHEM
142 | COc1ccc(-c2noc(CCC(=O)O)n2)cc1 | OCHEM
104 | O=C(CCl)Nc1ccc(Cl)c(Cl)c1 | OCHEM
66 | Nc1ccc(-c2cccc(C(F)(F)F)c2)cc1 | OCHEM
251 | O=C(O)c1ccc(N2CCCC2=O)cc1 | OCHEM
130 | Cc1ccc(-c2csc(N)n2)s1 | OCHEM
113 | Nc1cccc(-n2ccnc2)c1 | OCHEM
160 | Cc1cc(N(CCO)CCO)ccc1N=Nc1ccc([N+](=O)[O-])cc1 | OCHEM
225 | Nc1n[nH]c(-c2ccc(F)cc2)n1 | OCHEM
260 | N#Cc1cc([N+](=O)[O-])c[nH]c1=O | OCHEM
41.5 | COC(=O)c1ccc(Br)c(C)c1 | OCHEM
151.8 | CCCCc1nc2ccccc2[nH]1 | OCHEM, PubChem
159 | O=C(CCl)c1c(-c2ccc(F)cc2)[nH]c2ccccc12 | OCHEM
61 | CCc1ccc(C(=O)O)s1 | OCHEM
227 | O=C(CC(=O)Nc1cc(Cl)ccc1Cl)Nc1cc(Cl)ccc1Cl | OCHEM
212 | O=C(O)C1CCN(C(=O)C2CC2)CC1 | OCHEM
131 | O=C1C(=O)N(Cc2ccccc2Cl)c2ccccc21 | OCHEM
81 | S=c1cn[nH]c2ccccc12 | OCHEM
38 | O=C(CC(F)(F)F)c1ccccc1 | OCHEM
107 | CC(Sc1ccc(Cl)cc1)C(=O)O (stereo unspecified) | OCHEM
141 | O=C(O)COc1ccc(F)cc1Cl | OCHEM
63 | O=C(O)CCC(=O)N1CCOCC1 | OCHEM
213 | NNC(=O)c1ccc(Cl)c(S(N)(=O)=O)c1 | OCHEM
54 | O=S(=O)(Cl)c1ccc(CCCl)cc1 | OCHEM
148.5 | N#Cc1cnc(C(F)(F)C(F)(F)C(F)(F)F)nc1N | ChemicalBook
95 | NCCCN1CCC(C(N)=O)CC1 | OCHEM
220 | Cc1ccc(Nc2nnc(S)s2)cc1 | OCHEM
121 | CCOC(=O)c1sc(-c2ccc(OC)cc2)cc1N | OCHEM
78 | CC(C)c1cc(=O)oc2cc(O)ccc12 | OCHEM
130 | O=C(CCl)N1CCN(c2ccc([N+](=O)[O-])cc2)CC1 | OCHEM

Excerpt, the final 5 entries:

compound | MP (°C) | via
NCCCN1CCC(C(N)=O)CC1 | 95 | OCHEM
Cc1ccc(Nc2nnc(S)s2)cc1 | 220 | OCHEM
CCOC(=O)c1sc(-c2ccc(OC)cc2)cc1N | 121 | OCHEM
CC(C)c1cc(=O)oc2cc(O)ccc12 | 78 | OCHEM
O=C(CCl)N1CCN(c2ccc([N+](=O)[O-])cc2)CC1 | 130 | OCHEM